The test system of data set [1] is wild type, Δzuo1, Δsac1, Δvsp52, and Δvps16 strains of Saccharomyces cerevisiae. The note with it: 500 μg mL^−1, FIG. 4.
Another data set has as its system yARF1yarf2Δ cells. The note with it: 500 μg mL^−1, FIG. 5.
In another data set the test system is Sprague Dawley rats. The note with it: 100 mg/kg.

Several values for one entry are separate records, joined by “and”; a condition that tells them apart may be missing. Identical values can stand only once. Like-named read-outs stand apart in the source and are kept apart here.

For C-1 gentamicin, the “SCr (serum creatinine)” value with rats (Day 0, Mean of rats) was 0.2 mg/dL; with rats (Day 0, individual rat, listed as C-1 congener), 0.1 mg/dL and 0.2 mg/dL (2×) and 0.3 mg/dL; in the data set on rats (Day 1, Mean of rats), 0.2 mg/dL; with rats (Day 1, individual rat, listed as C-1 congener), 0.2 mg/dL (3×) and 0.1 mg/dL; with rats (Day 2, Mean of rats), 0.3 mg/dL; with rats (Day 2, individual rat, listed as C-1 congener), 0.2 mg/dL (2×) and 0.3 mg/dL (2×). Besides, the “SCr (serum creatinine)” value in the data set with rats (Day 3, Mean of rats) was 0.4 mg/dL; in the data set on rats (Day 3, individual rat, listed as C-1 congener) it was 0.4 mg/dL (2×) and 0.3 mg/dL and 0.5 mg/dL; with rats (Day 5, Mean of rats), 0.5 mg/dL; in the data set on rats (Day 5, individual rat, listed as C-1 congener) it was 0.6 mg/dL (2×) and 0.4 mg/dL and 0.3 mg/dL; in the data set with rats (Day 7, Mean of rats) it was 0.5 mg/dL; with rats (Day 7, individual rat, listed as C-1 congener), 0.6 mg/dL and 0.4 mg/dL (2×) and 0.5 mg/dL. Moreover, in the data set with rats (rat studies, compared with any gentamicin congener administered), the “level of serum creatinine (in words)” value was “lowest level of serum creatinine for any gentamicin congener”. Further, the “toxicity in vivo (in words)” value in the data set on rats (rats, compare Table 3 with Table 11) is reported as “less toxic in vivo than the C-2 congener”. Further, in data set [1], the “effect on yeast growth” value is listed as “less of an effect on yeast growth than native gentamicin or any of the other congener of gentamicin”. In addition, the “effect on bovine cell growth” value in the data set with yARF1yarf2Δ cells was “less of an effect on bovine cell growth than native gentamicin or any of the other congeners of gentamicin”. Further, the percent growth entry in the data set on hARF4 cells (100 μg mL^−1, FIG. 6) is given as “higher percent growth relative to other congeners of gentamicin or native gentamicin”; in the data set with hARF4 cells (500 μg mL^−1, FIG. 6) it was “higher percent growth”; in the data set with bARF1 cells (100 μg mL^−1, FIG. 6) it was “higher percent growth relative to other congeners of gentamicin or native gentamicin”; in the data set with bARF1 cells (500 μg mL^−1, FIG. 6), “higher percent growth”.

In the case of C-1a gentamicin, the “SCr (serum creatinine)” value is 0.2 mg/dL with Sprague Dawley rats (Day 0, Mean of rats); 0.1 mg/dL and 0.2 mg/dL (2×) in the data set with Sprague Dawley rats (Day 0, individual rat); 0.4 mg/dL in the data set with Sprague Dawley rats (Day 1, Mean of rats); 0.3 mg/dL and 0.5 mg/dL in the data set on Sprague Dawley rats (Day 1, individual rat); 0.5 mg/dL in the data set on Sprague Dawley rats (Day 2, Mean of rats); 0.4 mg/dL and 0.5 mg/dL in the data set on Sprague Dawley rats (Day 2, individual rat). Moreover, the “SCr (serum creatinine)” value was 0.5 mg/dL in the data set on Sprague Dawley rats (Day 3, Mean of rats); 0.5 mg/dL and 0.4 mg/dL with Sprague Dawley rats (Day 3, individual rat); 0.6 mg/dL with Sprague Dawley rats (Day 5, Mean of rats); 0.5 mg/dL and 0.6 mg/dL with Sprague Dawley rats (Day 5, individual rat); 0.6 mg/dL in the data set on Sprague Dawley rats (Day 7, Mean of rats); 0.6 mg/dL in the data set on Sprague Dawley rats (Day 7, individual rat). Further, the “SCr (serum creatinine)” value with Sprague Dawley rats (Day 8, Mean of rats) is 0.7 mg/dL; with Sprague Dawley rats (Day 8, individual rat), 0.7 mg/dL and 0.6 mg/dL; in the data set on rats (Day 0, Mean of rats), 0.2 mg/dL; in the data set on rats (Day 0, individual rat, listed as C-1a congener), 0.1 mg/dL and 0.3 mg/dL and 0.2 mg/dL (2×); with rats (Day 1, Mean of rats), 0.2 mg/dL; in the data set with rats (Day 1, individual rat, listed as C-1a congener), 0.3 mg/dL and 0.2 mg/dL (3×). Further, the “SCr (serum creatinine)” value in the data set on rats (Day 2, Mean of rats) was 0.3 mg/dL; in the data set on rats (Day 2, individual rat) it was 0.3 mg/dL; in the data set on rats (Day 3, Mean of rats), 0.5 mg/dL; in the data set on rats (Day 3, individual rat, listed as C-1a congener) it was 0.6 mg/dL (2×) and 0.5 mg/dL and 0.4 mg/dL; with rats (Day 5, Mean of rats) it was 0.7 mg/dL; in the data set on rats (Day 5, individual rat, listed as C-1a congener), 0.6 mg/dL (2×) and 1.0 mg/dL and 0.4 mg/dL. For the same substance, the “SCr (serum creatinine)” value in the data set with rats (Day 7, Mean of rats) was 0.7 mg/dL; in the data set with rats (Day 7, individual rat, listed as C-1a congener) it was 0.6 mg/dL (2×) and 0.9 mg/dL and 0.5 mg/dL. Also, the death of rat entry with Sprague Dawley rats (Rat #8, after the first injection) is given as “died”.

For C-2 gentamicin, the “SCr (serum creatinine)” value in the data set with Sprague Dawley rats (Day 0, Mean of rats) was 0.2 mg/dL; in the data set with Sprague Dawley rats (Day 0, individual rat), 0.3 mg/dL and 0.2 mg/dL and 0.1 mg/dL; in the data set with Sprague Dawley rats (Day 1, Mean of rats) it was 0.3 mg/dL; in the data set on Sprague Dawley rats (Day 1, individual rat) it was 0.5 mg/dL and 0.3 mg/dL and 0.2 mg/dL; with Sprague Dawley rats (Day 2, Mean of rats), 0.4 mg/dL; in the data set on Sprague Dawley rats (Day 2, individual rat) it was 0.5 mg/dL (2×) and 0.3 mg/dL. Besides, the “SCr (serum creatinine)” value in the data set on Sprague Dawley rats (Day 3, Mean of rats) was 0.4 mg/dL; with Sprague Dawley rats (Day 3, individual rat), 0.3 mg/dL and 0.4 mg/dL and 0.5 mg/dL; in the data set with Sprague Dawley rats (Day 5, Mean of rats), 0.5 mg/dL; in the data set on Sprague Dawley rats (Day 5, individual rat) it was 0.5 mg/dL; in the data set on Sprague Dawley rats (Day 7, Mean of rats), 0.6 mg/dL; with Sprague Dawley rats (Day 7, individual rat), 0.6 mg/dL (2×) and 0.5 mg/dL. Moreover, the “SCr (serum creatinine)” value in the data set on Sprague Dawley rats (Day 8, Mean of rats) was 0.5 mg/dL; in the data set with Sprague Dawley rats (Day 8, individual rat), 0.6 mg/dL and 0.5 mg/dL (2×).

For C-2a gentamicin, the “SCr (serum creatinine)” value in the data set with rats (Day 0, Mean of rats) was 0.2 mg/dL; in the data set with rats (Day 0, individual rat, listed as C-2a congener), 0.3 mg/dL (2×) and 0.2 mg/dL and 0.1 mg/dL; in the data set with rats (Day 1, Mean of rats), 0.3 mg/dL; in the data set with rats (Day 1, individual rat, listed as C-2a congener) it was 0.4 mg/dL (2×) and 0.2 mg/dL and 0.3 mg/dL; in the data set on rats (Day 2, Mean of rats), 0.5 mg/dL; in the data set with rats (Day 2, individual rat, listed as C-2a congener) it was 0.6 mg/dL and 0.4 mg/dL (2×) and 0.5 mg/dL. Besides, the “SCr (serum creatinine)” value with rats (Day 3, Mean of rats) is 0.7 mg/dL; in the data set on rats (Day 3, individual rat, listed as C-2a congener), 0.9 mg/dL and 0.6 mg/dL and 0.5 mg/dL and 0.8 mg/dL; in the data set with rats (Day 5, Mean of rats), 0.9 mg/dL; in the data set on rats (Day 5, individual rat, listed as C-2a congener), 0.9 mg/dL and 0.6 mg/dL and 0.8 mg/dL and 1.2 mg/dL; in the data set with rats (Day 7, Mean of rats) it was 0.7 mg/dL; in the data set on rats (Day 7, individual rat, listed as C-2a congener) it was 0.8 mg/dL and 0.5 mg/dL and 0.9 mg/dL and 0.6 mg/dL.
